Data: patent US11104700B2, “Oligonucleotides” (OXFORD UNIVERSITY INNOVATION LIMITED, priority 2017, dated 2021)

Test system: Phosphodiesterase 1 from Crotalus adamanteus venom

5′-dCGACG^MeC^LtT^LTGCAGC [ON6]
time to full digestion by 3′-exonuclease (gel): > 30 min

CGACG^MeCT^LTGCAGC [ON4]
time to full digestion by 3′-exonuclease (gel): ≤ 5 min
